Assay results from patent US12004868B2, “Liposomal mitigation of drug-induced inhibition of the cardiac IKr channel” (Signpath Pharma, Inc., priority 2011, dated 2024).

Protein sequences, listed by entry. Tags and fused reporters are not part of them. Lines headed by an entry give the natural chain unless they say otherwise; changes in a name come on top.
UniProt Q12809: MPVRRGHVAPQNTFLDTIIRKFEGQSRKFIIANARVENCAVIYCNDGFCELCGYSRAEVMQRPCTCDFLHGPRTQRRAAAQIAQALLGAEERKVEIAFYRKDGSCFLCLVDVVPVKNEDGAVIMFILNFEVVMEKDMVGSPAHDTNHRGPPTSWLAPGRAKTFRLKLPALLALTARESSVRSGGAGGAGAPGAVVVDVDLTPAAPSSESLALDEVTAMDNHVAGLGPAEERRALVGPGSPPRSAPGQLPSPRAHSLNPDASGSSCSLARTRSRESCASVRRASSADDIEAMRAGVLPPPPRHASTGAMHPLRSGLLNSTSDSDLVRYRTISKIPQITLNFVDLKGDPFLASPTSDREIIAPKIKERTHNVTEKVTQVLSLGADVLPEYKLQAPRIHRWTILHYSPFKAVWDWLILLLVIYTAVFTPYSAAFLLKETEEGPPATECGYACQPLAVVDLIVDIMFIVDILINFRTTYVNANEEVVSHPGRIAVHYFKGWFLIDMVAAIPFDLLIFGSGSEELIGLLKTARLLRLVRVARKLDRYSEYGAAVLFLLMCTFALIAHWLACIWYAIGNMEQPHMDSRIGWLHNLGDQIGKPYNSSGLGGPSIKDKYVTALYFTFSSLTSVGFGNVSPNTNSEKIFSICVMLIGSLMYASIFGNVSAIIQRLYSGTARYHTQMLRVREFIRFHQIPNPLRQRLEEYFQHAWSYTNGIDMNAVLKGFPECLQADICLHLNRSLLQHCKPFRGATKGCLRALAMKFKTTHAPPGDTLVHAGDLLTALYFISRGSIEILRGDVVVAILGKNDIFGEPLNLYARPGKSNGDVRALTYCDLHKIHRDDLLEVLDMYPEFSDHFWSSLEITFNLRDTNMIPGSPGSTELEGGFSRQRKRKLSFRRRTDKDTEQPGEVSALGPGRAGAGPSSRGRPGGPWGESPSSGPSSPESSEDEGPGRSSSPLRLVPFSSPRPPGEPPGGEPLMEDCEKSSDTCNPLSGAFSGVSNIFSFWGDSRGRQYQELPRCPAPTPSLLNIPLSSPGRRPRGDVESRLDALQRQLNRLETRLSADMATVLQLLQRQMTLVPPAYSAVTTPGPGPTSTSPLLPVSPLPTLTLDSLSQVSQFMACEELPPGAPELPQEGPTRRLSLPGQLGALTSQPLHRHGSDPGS

Tests used:
[1] = biological target: T1, hERG (Homo sapiens, UniProt Q12809); conditions: read-out: IC50 of IKr channel inhibition (Helson et al., 2012); previously reported; cited from earlier work
[2] = biological target: IKr channel (hERG) (Homo sapiens, UniProt Q12809); conditions: 100 nM, tested twice; 0.1 µM
[3] = biological target: T1, hERG; conditions: cited from earlier work
[4] = biological target: T1, hERG

## N-[4-[[1-[2-(6-methyl-2-pyridinyl)ethyl]-4-piperidinyl]carbon-yl]phenyl]methane sulfonamide dihydrochloride anhydrous [E-4031]
[1]
  IC50: 56 nM
[2]
  inhibition of current density: 67% and 79%
[3]
  hERG blocker potency (in words): extremely high potency compound
[4]
  Corrected Normalized Current Density: 0.094*
  IC50: 50 nM
  Normalized Current Density: 0.124

Values joined by “and” are separate entries in the source; they are usually repeats but may differ in a detail not shown here. Equal values may be shown once. Read-outs that look alike come from different tables or passages of the source. Marks after values point to notes of the source that are not given here.
